Values quoted from earlier work in PMC7717710, “Synthesis, computational studies and assessment of in vitro inhibitory activity of umbelliferon-based compounds against tumour-associated carbonic anhydrase isoforms IX and XII” (Journal of Enzyme Inhibition and Medicinal Chemistry, 2020).

Protein sequences, listed by entry. Tags and fused reporters are not part of them. Lines headed by an entry give the natural chain unless they say otherwise; changes in a name come on top.
UniProt P00915: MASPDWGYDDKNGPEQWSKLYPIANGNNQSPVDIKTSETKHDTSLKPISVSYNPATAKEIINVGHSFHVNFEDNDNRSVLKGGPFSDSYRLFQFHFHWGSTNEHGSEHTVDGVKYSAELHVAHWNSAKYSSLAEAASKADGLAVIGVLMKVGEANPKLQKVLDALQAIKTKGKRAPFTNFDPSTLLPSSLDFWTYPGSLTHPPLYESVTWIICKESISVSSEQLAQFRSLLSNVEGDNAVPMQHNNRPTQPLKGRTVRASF

Tests used:
hCA I = biological target: T1, hCA I (Homo sapiens, UniProt P00915); design: method as in PMID 29197732; conditions: reference compounds; read-out: Inhibition data (Ki) hCA I; cited from earlier work
T1 construct: made in house

hCA II = biological target: T2, hCA II (Homo sapiens, UniProt P00918); design: method as in PMID 29197732; conditions: reference compounds; read-out: Inhibition data (Ki) hCA II; cited from earlier work
T2 construct: made in house

Question: For `O=c1ccc2ccc(O)cc2o1` [Umbelliferon, 7-hydroxy-2H-chromen-2-one], which Ki (hCA I) is on record?
Answer: > 10 µM

Question: What about the Ki (hCA II) of the same compound?
Answer: > 10 µM
